Experimental data taken from patent US6420373B1, “9-N-Bicyclic nuceoside agents useful as selective inhibitors of proinflammatory cytokines” (Merrell Pharmaceuticals Inc., priority 1993, dated 2002).

Tested on: D-galactosamine animal model of septic shock
Test: D-galactosamine animal model of septic shock (protection against lethal effects of LPS)
Type: in vivo
Details: treated about 1 hour before i.p. challenge of D-galactosamine and LPS, by 18 hours after challenge, test compound 100 mg/kg i.p.

Q: For `CC(=O)CCCCn1c(=O)c2c(ncn2C)n(C)c1=O` [Pentoxifylline], which protection (mice) is on record?
A: 12.5%

Q: What about the mice killed of the same molecule?
A: 7 out of 8
